# Laboratory results published in patent US20150148256A1, “BIOLUMINESCENCE IMAGING-BASED SCREENING ASSAY AND INHIBITORS OF ABCG2” (THE JOHNS HOPKINS UNIVERSITY, priority 2008, published 2015).
# Tested on: ABCG2-overexpressing NCI-H460/MX20 cells
# Assay: Mitoxantrone (MTX) resensitization assay (XTT)
smiles,measurement,setting,value
CCN(CC)CCCC(C)Nc1c2ccc(Cl)cc2nc2ccc(OC)cc12 (stereo not drawn) [quinacrine],MTX (mitoxantrone resensitization assay),H460/MX20 cells with MTX,Y
same,resensitization of H460/MX20 cells to MTX,"compound 1 μM with 15 μM MTX, two days",showed resensitization of H460/MX20 cells to MTX
same,cytotoxicity in the MTX resensitization assay,"compound 20 μM, H460/MX20 cells",too cytotoxic to be tested in the MTX assay
